Laboratory results taken from patent US9340577B2, “HLA binding motifs and peptides and their uses” (priority 1992, dated 2016).
pIC50: −log10 of the molar value. Read-outs that look alike come from different tables or passages of the source.

Key:
Assay in all cases: biochemical
B*5301 = B*5301 (Homo sapiens, UniProt P01889, A329T/A93T/A95T/C349S/D201E/D98Y/E176V/E187L/E204Q/E69T/G107R/I218V/K202T/L105A/L119I/N104I/Q94N/R106L/R155S/R180L/S101N/S121R/S35A/S48A/T118I/V127L/V306I/V36M/Y140S/Y91F); details: for IC50: B*5301 (nM)
B*3501 = B*3501 (Homo sapiens, UniProt P01889, A329T/A93T/A95T/C349S/D201E/D98Y/E176V/E187L/E204Q/E69T/I218V/K202T/L119I/Q94N/R155S/R180L/S121R/S35A/S48A/T118I/V127L/V306I/V36M/Y140S/Y91F)
B*5401 = B*5401 (Homo sapiens, UniProt P01889, A329T/C349S/D138N/D201E/E176V/E187T/E204Q/E69G/I76V/K202T/L119W/R155S/R180L/S121T/S35A/S48A/V127L/V306I/V36M/Y140L)
B*0701 = B*0701 (Homo sapiens, UniProt P01889); details: B*0701 (nM), binding of B7-like supermotif 10-mer peptides to purified HLA-B*0701
A*0206 = A*0206 (Homo sapiens, UniProt P04439, D140Y/D185E/D98H/E176V/E277Q/F33Y/G131W/G231S/I119V/I121R/I166T/I218V/L300P/L318F/N151K/N90K/P208A/P217A/Q86G/Q94H/R138H/R169H/T345S); assay type: binding
A*2902 = A*2902 (Homo sapiens, UniProt P04439, A270S/D101N/D185E/E176V/E277Q/E87Q/F33T/G231S/H175R/I121M/I218V/I322F/K168Q/L300P/L318F/M331R/P208A/P217A/Q86L/T323A/T345S/V100A/V358M); assay type: binding
A*3002 [1] = molecular target: T1, A*3002 (Homo sapiens, UniProt P04439, D101N/D140H/D185E/E176R/F33S/G80R/H175R/K168Q/Q94H/R138E/R41S/V100E); assay type: binding
HLA-A1 (A*0101) = HLA-A1 (A*0101) (Homo sapiens, UniProt P04439, A114D/A174V/A182V/D101N/D185E/E176A/E190D/L180R/Q94H/R68K/S129P/T187R/V100A/V91M/W191G)
A*2601 = A*2601 (Homo sapiens, UniProt P04439, A114D/A173T/A270S/D101N/D185E/E277Q/E87N/F33Y/G231S/I121R/I218V/K168Q/L180W/L300P/L318F/P208A/P217A/Q86R/Q94H/R138Q/S129P/T187R/T323A/T345S/V100A/V358M); assay type: binding
B*4501 = B*4501 (Homo sapiens, UniProt P01889, A329T/A65T/A93T/A95T/C349S/D138N/D201E/D98Y/E176V/E187L/E204Q/E69K/H137Y/K202T/L119W/N87E/Q56L/Q94N/R155S/R180D/S121R/S35A/S48T/V127L/V306I/V36M/W191S/Y140L/Y33H/Y91S); assay type: binding
A*0202 = A*0202 (Homo sapiens, UniProt P04439, D140Y/D185E/D98H/E176V/E277Q/G131W/G231S/I119L/I121R/I166T/I218V/L180W/L300P/L318F/N151K/N90K/P208A/P217A/Q67R/Q86G/Q94H/R138H/R169H/T345S)
A*3002 [2] = molecular target: T1, A*3002; assay type: binding; remark: listed apart in the source

## CC(C)C[C@H](NC(=O)[C@@H]1CCCN1C(=O)[C@H](Cc1ccccc1)NC(=O)[C@H](CCC(N)=O)NC(=O)[C@@H]1CCCN1C(=O)[C@H](CCCNC(=N)N)NC(=O)[C@@H](NC(=O)[C@@H]1CCCN1C(=O)[C@@H](N)Cc1ccccc1)C(C)C)C(=O)O
B*5301
  pIC50: 6.50

## CC[C@H](C)[C@H](NC(=O)CNC(=O)[C@H](CCCCN)NC(=O)[C@H](CC(=O)O)NC(=O)[C@H](CC(C)C)NC(=O)[C@@H]1CCCN1C(=O)[C@@H](N)CC(C)C)C(=O)N[C@@H](CCCCN)C(=O)N1CCC[C@H]1C(=O)N[C@@H](Cc1ccc(O)cc1)C(=O)O [15.210]
B*3501
  pIC50: 6.26

## CC[C@H](C)[C@H](NC(=O)[C@H](CO)NC(=O)[C@H](Cc1ccccc1)NC(=O)[C@H](CO)NC(=O)[C@H](CS)NC(=O)CNC(=O)[C@@H]1CCCN1C(=O)[C@@H](N)CC(C)C)C(=O)N[C@@H](Cc1ccccc1)C(=O)N[C@@H](CC(C)C)C(=O)O [15.220]
B*5401
  pIC50: 5.07
B*3501
  pIC50: 5.10
B*5301
  IC50: 686 nM

## CC[C@H](C)[C@H](NC(=O)[C@@H](NC(=O)[C@H](Cc1ccccc1)NC(=O)[C@H](CC(N)=O)NC(=O)[C@@H](NC(=O)[C@@H](NC(=O)[C@H](CS)NC(=O)[C@@H]1CCCN1C(=O)[C@@H](N)Cc1ccc(O)cc1)[C@@H](C)O)C(C)C)[C@@H](C)O)C(=O)N[C@@H](Cc1ccccc1)C(=O)O [15.225]
B*5301
  IC50: 257 nM

## CC[C@H](C)[C@H](NC(=O)[C@H](CC(N)=O)NC(=O)[C@@H](NC(=O)[C@@H]1CCCN1C(=O)[C@@H](N)[C@@H](C)O)C(C)C)C(=O)N[C@H](C(=O)NCC(=O)N[C@@H](CCCNC(=N)N)C(=O)N[C@@H](CC(N)=O)C(=O)N[C@@H](CC(C)C)C(=O)O)[C@@H](C)CC [15.251]
B*3501
  pIC50: 4.74
B*0701
  IC50: 152 nM

## CC[C@H](C)[C@H](NC(=O)[C@@H](NC(=O)[C@@H]1CCCN1C(=O)[C@H](CC(N)=O)NC(=O)[C@@H](NC(=O)CNC(=O)[C@H](Cc1ccccc1)NC(=O)[C@@H](NC(=O)[C@H](C)N)[C@@H](C)CC)C(C)C)[C@@H](C)O)C(=O)O [Peptide 86.0178]
A*0206
  pIC50: 6.38

## CSCC[C@H](NC(=O)[C@@H](N)C(C)C)C(=O)N[C@@H](C)C(=O)NCC(=O)N[C@H](C(=O)NCC(=O)N[C@@H](CO)C(=O)N1CCC[C@H]1C(=O)N[C@@H](Cc1ccc(O)cc1)C(=O)O)C(C)C [Peptide 1215.02]
A*2902
  pIC50: 7.04
A*3002 [1]
  pIC50: 8.12

## CC(C)C[C@H](NC(=O)[C@H](CO)NC(=O)[C@@H](NC(=O)[C@H](CC(=O)O)NC(=O)[C@H](CCC(N)=O)NC(=O)[C@@H](NC(=O)[C@@H](N)[C@@H](C)O)C(C)C)C(C)C)C(=O)N[C@@H](CCC(=O)O)C(=O)N[C@H](C(=O)O)C(C)C [Peptide 1593.55]
A*0206
  pIC50: 6.71

## CC(C)[C@H](NC(=O)[C@H](CO)NC(=O)[C@H](CCCCN)NC(=O)[C@H](CC(=O)O)NC(=O)[C@@H](NC(=O)CN)[C@@H](C)O)C(=O)N[C@H](C(=O)N[C@@H](CS)C(=O)N[C@H](C(=O)N[C@@H](Cc1ccc(O)cc1)C(=O)O)[C@@H](C)O)[C@@H](C)O [Peptide 1598.01]
A*2902
  pIC50: 5.32
A*3002 [1]
  pIC50: 5.72
HLA-A1 (A*0101)
  pIC50: 6.39
A*2601
  pIC50: < 4.70

## CSCC[C@H](N)C(=O)N[C@H](C(=O)N[C@@H](CC(=O)O)C(=O)N[C@@H](CC(C)C)C(=O)N[C@H](C(=O)N[C@@H](CCC(N)=O)C(=O)N[C@@H](CCC(=O)O)C(=O)N[C@@H](CC(N)=O)C(=O)N[C@@H](Cc1ccc(O)cc1)C(=O)O)C(C)C)[C@@H](C)O [Peptide 1610.01]
A*2902
  pIC50: 6.34
A*3002 [1]
  pIC50: 5.63
HLA-A1 (A*0101)
  pIC50: 8.15
A*2601
  pIC50: 6.18

## CSCC[C@H](NC(=O)[C@@H](NC(=O)[C@@H](NC(=O)[C@@H]1CCCN1C(=O)[C@H](CC(C)C)NC(=O)[C@H](CC(=O)O)NC(=O)[C@H](CO)NC(=O)[C@H](C)N)[C@@H](C)O)[C@@H](C)O)C(=O)N[C@@H](CC(N)=O)C(=O)N[C@@H](Cc1ccc(O)cc1)C(=O)O [Peptide 1610.02]
A*3002 [1]
  pIC50: 6.10
HLA-A1 (A*0101)
  pIC50: 7.49
A*2601
  pIC50: < 4.70

## CC(C)C[C@H](N)C(=O)N[C@H](C(=O)N[C@@H](CC(=O)O)C(=O)N[C@@H](Cc1c[nH]cn1)C(=O)N[C@@H](Cc1ccccc1)C(=O)N[C@H](C(=O)N[C@@H](CCC(N)=O)C(=O)N[C@@H](CCC(=O)O)C(=O)N[C@@H](CC(N)=O)C(=O)N[C@@H](Cc1ccc(O)cc1)C(=O)O)C(C)C)[C@@H](C)O [Peptide 1610.03]
A*3002 [1]
  pIC50: 5.74
HLA-A1 (A*0101)
  pIC50: 8.24
A*2601
  pIC50: 5.42

## CC[C@H](C)[C@H](NC(=O)[C@H](Cc1ccc(O)cc1)NC(=O)[C@H](CC(C)C)NC(=O)[C@H](Cc1ccc(O)cc1)NC(=O)CNC(=O)[C@@H](NC(=O)[C@@H](NC(=O)[C@H](CCC(=O)O)NC(=O)[C@@H](N)CCC(=O)O)[C@@H](C)CC)[C@@H](C)O)C(=O)N[C@@H](CO)C(=O)N[C@@H](C)C(=O)N[C@@H](Cc1c[nH]c2ccccc12)C(=O)O [Peptide 9002.0342]
B*4501
  pIC50: 5.83

## CC[C@H](C)[C@H](NC(=O)[C@@H]1CCCN1C(=O)[C@@H](NC(=O)[C@H](CCCCN)NC(=O)CNC(=O)CNC(=O)[C@H](CC(=O)O)NC(=O)[C@H](C)NC(=O)[C@H](Cc1c[nH]cn1)NC(=O)[C@H](Cc1ccc(O)cc1)NC(=O)[C@H](CCC(=O)O)NC(=O)[C@@H](N)[C@@H](C)O)C(C)C)C(=O)O [Peptide 9002.0345]
B*4501
  pIC50: 7.21

## CC(C)C[C@H](NC(=O)[C@H](Cc1ccc(O)cc1)NC(=O)[C@H](CCC(=O)O)NC(=O)[C@H](CCC(=O)O)NC(=O)[C@H](C)N)C(=O)N[C@H](C(=O)N1CCC[C@H]1C(=O)N[C@@H](CCC(N)=O)C(=O)N[C@@H](CCC(N)=O)C(=O)NCC(=O)N[C@@H](Cc1ccccc1)C(=O)N[C@@H](Cc1ccccc1)C(=O)O)C(C)C [Peptide 9002.0347]
B*4501
  pIC50: 7.89

## CC[C@H](C)[C@H](NC(=O)[C@@H](NC(=O)[C@@H]1CCCN1C(=O)[C@H](CC(=O)O)NC(=O)[C@H](CC(=O)O)NC(=O)[C@@H]1CCCN1C(=O)CNC(=O)[C@H](Cc1ccc(O)cc1)NC(=O)[C@H](CC(C)C)NC(=O)[C@H](CC(C)C)NC(=O)[C@@H](N)CC(N)=O)[C@@H](C)O)C(=O)O [Peptide 9013.0310]
A*0202
  pIC50: 6.38

## CC[C@H](C)[C@H](NC(=O)[C@H](CC(C)C)NC(=O)[C@H](CCC(N)=O)NC(=O)[C@H](CC(=O)O)NC(=O)[C@H](C)NC(=O)[C@H](CC(C)C)NC(=O)[C@@H](N)CC(=O)O)C(=O)N[C@@H](Cc1c[nH]cn1)C(=O)N[C@@H](CC(C)C)C(=O)N[C@@H](Cc1ccc(O)cc1)C(=O)O [Peptide 9015.0184]
A*3002 [2]
  pIC50: 6.55
